Data reported in PubChem BioAssay AID602277 (University of Pittsburgh Molecular Library Screening Center, 2012).
The entries are a selection whose mix differs from that of the whole data set. Activity calls are given as the source filed them.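 The calls were made as follows: active = inhibition of the reporter signal at or above 50%; inactive = inhibition below 50%.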

Test: TLR3 IRF3 reporter activation blockers – cell-based, poly I:C stimulus, luciferase, 10K MLSCN set, primary screen (AID 602277)
Conditions: HEK293-TLR3 RL24 IRF3 luciferase reporter, at 10 µM, active compounds read high

Structure (SMILES) | inhibition
Fc1ccccc1NC1CCN(Cc2ccccc2)CC1 | inactive: 26.4%
